Biological target: T1, Prostaglandin G/H synthase 2 (Mus musculus) (UniProt Q05769)
T1 sequence (whole entry): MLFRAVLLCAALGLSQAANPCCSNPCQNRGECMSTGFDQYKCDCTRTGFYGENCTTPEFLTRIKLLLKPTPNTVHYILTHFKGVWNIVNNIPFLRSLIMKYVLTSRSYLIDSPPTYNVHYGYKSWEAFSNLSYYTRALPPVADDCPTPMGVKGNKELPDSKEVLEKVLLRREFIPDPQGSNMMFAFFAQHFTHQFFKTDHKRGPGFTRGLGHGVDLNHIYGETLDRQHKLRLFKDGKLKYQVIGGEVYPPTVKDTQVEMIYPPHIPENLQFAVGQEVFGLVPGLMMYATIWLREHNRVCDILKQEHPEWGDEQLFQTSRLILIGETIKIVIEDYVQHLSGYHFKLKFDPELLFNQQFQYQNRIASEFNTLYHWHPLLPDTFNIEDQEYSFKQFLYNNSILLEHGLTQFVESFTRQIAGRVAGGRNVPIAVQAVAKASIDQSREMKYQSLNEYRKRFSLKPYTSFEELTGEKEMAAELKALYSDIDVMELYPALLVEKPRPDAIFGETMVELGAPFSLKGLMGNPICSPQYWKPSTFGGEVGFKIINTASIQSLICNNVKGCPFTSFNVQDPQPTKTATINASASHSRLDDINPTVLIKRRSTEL
Assay: Inhibition of purified mouse COX-2 assessed as inhibition of PGE2/PGD2 formation preincubated at 10 uM for 3 mins before arachidonic acid substrate addition measured after 30 seconds by LC-MS-MS method
Outline: (§1)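 Purified murine COX-2 (50 nM) preincubated 3 min with test agent at 10 µM in DMSO, alongside a solvent control. Then 2-AG or AA added at 5 µM, 37 °C, for 30 s. Read-out is percent inhibition of substrate oxygenation versus control. Mean ± SD, n = 6.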

SMILES	inhibition [%]
O=C(O)Cc1ccccc1Nc1c(F)cccc1F	10
O=C(O)Cc1ccccc1Nc1c(F)cccc1Cl	15
O=C(O)Cc1ccccc1Nc1ccccc1Cl	0
O=C(O)Cc1ccccc1Nc1ccccc1	15
Cc1ccc(Nc2c(F)cccc2Cl)c(CC(=O)O)c1	25

Biological target: T1, Prostaglandin G/H synthase 2 (Mus musculus)
Assay: Inhibition of purified mouse COX-2 assessed as inhibition of PGE2-G/PGD2-G formation preincubated at 10 uM for 3 mins before 2-AG substrate addition measured after 30 seconds by LC-MS-MS method
Outline: as §1

SMILES	inhibition [%]
O=C(O)Cc1ccccc1Nc1ccccc1	8
